Among the data in paper PMC12655733, “Design, Synthesis and Evaluation of the First 2-Alkynyl(aza)indole ^18F Probe Targeting α-Synuclein Aggregates” (Pharmaceuticals, 2025) are Kd values, retold here.

Protein sequences, listed by entry. Tags and fused reporters are not part of them. Residues count along the entry.
UniProt P05067, 672-713: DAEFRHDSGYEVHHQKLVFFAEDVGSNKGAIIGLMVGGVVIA

For the assay, the target named is T1, Aβ1-42 fibrils (Homo sapiens, UniProt P05067).
T1 construct: Wild-type α-syn and Aβ1-42 were expressed; made in house; host or cells: Escherichia coli BL21(DE3)
Description: Inhibition of thioflavin T binding to Aβ1-42 fibrils (fluorescence competition), Ki determination. To be noted: read-out: KdThT for Aβ1-42 fibrils. As to the method: Wild-type α-syn and Aβ1-42 were expressed in the Escherichia coli strain BL21(DE3) (Stratagene, La Jolla, CA, USA) and purified as described. […] For the Aβ1-42 peptide, the concentration was determined by a fluorometric method using the reactive compound fluorescamine (Sigma, San Jose, CA, USA) that reacts with primary amino groups to form a fluorescent product. The human Tau protein (isoform h2N4RTau) was expressed in the pET11d vector in the Escherichia coli strain BL21(DE3) (Stratagene, La Jolla, CA, USA) and purified as described.
For assembly into fibrils, α-syn was incubated in 50 mM Tris-HCl, pH 7.5, 150 mM KCl at 37 °C under continuous shaking for 4 days. Lyophilized Aβ1-42 was dissolved in 1,1,1,3,3,3-hexafluoro-2-propanol (HFIP) at a concentration of 0.2 mg/mL and incubated for 24 h at 37 °C to achieve complete solubilization. HFIP was evaporated under a nitrogen stream to obtain a dry film. To start assembly into fibrils, the dry peptide was resuspended in PBS pH 7.4, 10% (v/v) DMSO and incubated at 37 °C without shaking for 3 days. […] The images were recorded with a Gatan Orius CCD camera (Gatan, Pleasanton, CA, USA). Finally, the percentage of α-syn or Aβ1-42 aggregated into fibrils was assessed by pelleting fibrils at 40,000× g for 20 min and by determining the concentration of soluble protein/peptide remaining in the supernatant. […]

On to `Cc1ccc2c(c1)sc(-c1ccc(N(C)C)cc1)[n+]2C` [ThT, thioflavin T, reference compound], for which the Kd was determined as 500 nM.
